# In ChEMBL document CHEMBL4765389, “Antimicrobial and anti-inflammatory activities of short dodecapeptides derived from duck cathelicidin: Plausible mechanism of bactericidal action and endotoxin neutralization” (Eur J Med Chem, 2020):
# Key:
# Staphylococcus aureus [1] = experiment: Antibacterial activity against methicillin-resistant Staphylococcus aureus CCARM 3095 assessed as reduction in bacterial growth incubated for 24 hrs by CLSI based broth dilution method; assay type: functional; conditions: read-out: MIC100
# Staphylococcus aureus [2] = experiment: Antibacterial activity against methicillin-resistant Staphylococcus aureus CCARM 3090 assessed as reduction in bacterial growth incubated for 24 hrs by CLSI based broth dilution method; assay type: functional; conditions: read-out: MIC100
# Salmonella typhimurium = experiment: Antibacterial activity against Salmonella typhimurium KCTC 1926 assessed as reduction in bacterial growth incubated for 24 hrs by CLSI based broth dilution method; assay type: functional, Salmonella enterica subsp. enterica serovar Typhimurium; conditions: Salmonella enterica, read-out: MIC100
# [3] = system: Staphylococcus epidermidis; experiment: Antibacterial activity against Staphylococcus epidermidis KCTC 1917 assessed as reduction in bacterial growth incubated for 24 hrs by CLSI based broth dilution method; assay type: functional; conditions: read-out: MIC100
# Staphylococcus aureus [4] = experiment: Antibacterial activity against Staphylococcus aureus KCTC 1621 assessed as reduction in bacterial growth incubated for 24 hrs by CLSI based broth dilution method; assay type: functional; conditions: read-out: MIC100
# Staphylococcus aureus [5] = experiment: Antibacterial activity against methicillin-resistant Staphylococcus aureus CCARM 3089 assessed as reduction in bacterial growth incubated for 24 hrs by CLSI based broth dilution method; assay type: functional; conditions: read-out: MIC100
# Bacillus subtilis = experiment: Antibacterial activity against Bacillus subtilis KCTC 3068 assessed as reduction in bacterial growth incubated for 24 hrs by CLSI based broth dilution method; assay type: functional; conditions: read-out: MIC100
# Escherichia coli = experiment: Antibacterial activity against Escherichia coli KCTC 1682 assessed as reduction in bacterial growth incubated for 24 hrs by CLSI based broth dilution method; assay type: functional; conditions: read-out: MIC100
# Pseudomonas aeruginosa = experiment: Antibacterial activity against Pseudomonas aeruginosa KCTC 1637 assessed as reduction in bacterial growth incubated for 24 hrs by CLSI based broth dilution method; assay type: functional; conditions: read-out: MIC100
smiles,measurement,setting,value
CC[C@H](C)[C@H](NC(=O)CN)C(=O)NCC(=O)N[C@@H](C)C(=O)N[C@H](C(=O)N[C@@H](CC(C)C)C(=O)N[C@@H](CCCCN)C(=O)N[C@H](C(=O)N[C@@H](CC(C)C)C(=O)N[C@H](C(=O)N[C@H](C(=O)NCC(=O)N[C@@H](CC(C)C)C(=O)N1CCC[C@H]1C(=O)N[C@@H](C)C(=O)N[C@@H](CC(C)C)C(=O)N[C@H](C(=O)N[C@@H](CO)C(=O)N[C@@H](Cc1c[nH]c2ccccc12)C(=O)N[C@H](C(=O)N[C@@H](CCCCN)C(=O)N[C@@H](CCCNC(=N)N)C(=O)N[C@@H](CCCCN)C(=O)N[C@@H](CCCNC(=N)N)C(=O)N[C@@H](CCC(N)=O)C(=O)N[C@@H](CCC(N)=O)C(N)=O)[C@@H](C)CC)[C@@H](C)CC)[C@@H](C)O)[C@@H](C)O)C(C)C)C(C)C [MELITTIN],MIC,Staphylococcus aureus [1],32 µM
same,MIC,Staphylococcus aureus [2],16 µM
same,MIC,Salmonella typhimurium,2 µM
same,MIC,[3],8 µM
same,MIC,Staphylococcus aureus [4],4 µM
same,MIC,Staphylococcus aureus [5],32 µM
same,MIC,Bacillus subtilis,4 µM
same,MIC,Escherichia coli,16 µM
same,MIC,Pseudomonas aeruginosa,4 µM
